Two molecules from patent US20230081426A1, “COMPOUNDS AND METHODS FOR KRAS MODULATION AND INDICATIONS THEREFOR” (Plexxikon Inc., priority 2020, published 2023) can be followed below.

Protein sequences, listed by entry. Tags and fused reporters are not part of them. Residues count along the entry.
UniProt P01116, 1-188 isoform 2 G12C: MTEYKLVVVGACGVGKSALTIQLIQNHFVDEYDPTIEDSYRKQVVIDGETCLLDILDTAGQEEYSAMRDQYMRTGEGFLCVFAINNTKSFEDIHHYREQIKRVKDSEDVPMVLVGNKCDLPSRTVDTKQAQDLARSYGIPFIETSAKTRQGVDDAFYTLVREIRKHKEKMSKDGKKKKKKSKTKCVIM
UniProt P01116, 1-188 isoform 2 G12D: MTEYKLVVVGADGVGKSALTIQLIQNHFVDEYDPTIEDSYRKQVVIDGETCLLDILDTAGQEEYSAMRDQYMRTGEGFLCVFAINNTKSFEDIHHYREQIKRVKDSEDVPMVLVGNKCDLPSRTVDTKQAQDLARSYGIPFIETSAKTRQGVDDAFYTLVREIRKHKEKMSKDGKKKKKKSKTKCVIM

In test [1] the target is G12D-mutant human KRAS (amino acid residues 1-188) (Homo sapiens, UniProt P01116, G12D). Kind of test: KRAS Binding Disruption Assay (AlphaScreen; biotinylated KRpep-2d analogue or RAF1-RBD), G12D. Particulars: read-out: KRAS GMean IC50 (uM) MUTATION: G12D, geometric mean. In general terms: Alpha assays give light when donor and acceptor beads are brought close together.
Test [2] deals with G12C-mutant human KRAS (amino acid residues 1-188) (Homo sapiens, UniProt P01116, G12C). Kind of test: KRAS Binding Disruption Assay (AlphaScreen; biotinylated KRpep-2d analogue or RAF1-RBD), G12C. The note with it: read-out: KRAS GMean IC50 (uM) MUTATION: G12C, geometric mean.

Regarding `Fc1c(-c2c[nH]c3cccc(Cl)c23)ccc2c(N3CC4CCC(C3)N4)nc(OCC34CCCN3CCC4)nc12`, the IC50 in test [1] and in test [2] was 0.0001 to 10 µM throughout.
Regarding `Fc1cc2c(N3CC4CCC(C3)N4)nc(OCC34CCCN3CCC4)nc2c(F)c1-c1c[nH]c2cccc(Cl)c12`, the IC50 in test [1] and in test [2] was 0.0001 to 10 µM throughout.

Broadly, the IC50 is the concentration that inhibits the measured activity by half.
